Source: patent US11642346B2, “Combination therapy for treating cancer” (Epizyme, Inc., priority 2017, dated 2023)

Legend:
BT-12 cells [1] = settings: tazemetostat 7 days, then X-ray 2 Gy, in vitro
BT-12 cells [2] = settings: X-ray 0 to 8 Gy, then 10 μM tazemetostat for seven days

For CCN(c1cc(-c2ccc(CN3CCOCC3)cc2)cc(C(=O)NCc2c(C)cc(C)[nH]c2=O)c1C)C1CCOCC1 [tazemetostat], the “Combination effect on proliferation, X-ray irradiation after tazemetostat priming” value (BT-12 cells [1]) was “Antagonism was not found” and the “Combination effect on cell proliferation, cells irradiated immediately prior to treatment with tazemetostat” value (BT-12 cells [2]) was “combination benefit”.
